# From paper PMC4858680, “A platinum-based hybrid drug design approach to circumvent acquired resistance to molecular targeted tyrosine kinase inhibitors” (Scientific Reports, 2016)
# By UniProt entry, the sequences of proteins in these tests, tags left out. Residues count along the entry.
# UniProt P23458, 854-1154 limits assumed: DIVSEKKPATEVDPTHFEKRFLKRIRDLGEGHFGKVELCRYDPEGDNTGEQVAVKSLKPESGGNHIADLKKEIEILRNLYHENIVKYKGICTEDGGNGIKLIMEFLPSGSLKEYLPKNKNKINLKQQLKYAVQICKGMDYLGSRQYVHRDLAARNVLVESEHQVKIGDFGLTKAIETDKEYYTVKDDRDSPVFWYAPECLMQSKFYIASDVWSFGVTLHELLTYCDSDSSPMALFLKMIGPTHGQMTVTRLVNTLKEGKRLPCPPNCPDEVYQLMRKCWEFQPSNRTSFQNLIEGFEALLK
# UniProt P23458, 561-860 limits assumed: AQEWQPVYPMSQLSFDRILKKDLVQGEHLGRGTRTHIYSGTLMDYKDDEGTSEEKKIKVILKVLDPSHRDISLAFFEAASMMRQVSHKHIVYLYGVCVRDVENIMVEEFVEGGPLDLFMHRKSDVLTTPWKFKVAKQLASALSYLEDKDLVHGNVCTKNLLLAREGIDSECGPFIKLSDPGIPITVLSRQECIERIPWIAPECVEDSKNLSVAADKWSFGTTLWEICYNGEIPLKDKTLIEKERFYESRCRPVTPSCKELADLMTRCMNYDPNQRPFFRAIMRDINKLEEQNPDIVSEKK
# Legend:
# EGFR(E746-A750del) [1] = target: T1, EGFR(E746-A750del) (Homo sapiens, UniProt P00533, DEL746-750); settings: 10 μM
# [2] = target: T2, JAK1(JH1domain-catalytic) (Homo sapiens, UniProt P23458); settings: 10 μM
# EGFR(L747-E749del,A750P) [3] = target: T3, EGFR(L747-E749del,A750P) (Homo sapiens, UniProt P00533, A750P/DEL747-749); settings: 10 μM
# EGFR(S752-I759del) [4] = target: T4, EGFR(S752-I759del) (Homo sapiens, UniProt P00533, DEL752-759); settings: 10 μM
# EGFR(L747-S752del,P753S) [5] = target: T5, EGFR(L747-S752del,P753S) (Homo sapiens, UniProt P00533, DEL747-752/P753S); settings: 10 μM
# [6] = target: T6, JAK1(JH2domain-pseudokinase) (Homo sapiens, UniProt P23458); settings: 10 μM
# [7] = target: T2, JAK1(JH1domain-catalytic); experiment: biochemical; settings: read-out: Percent control
# [8] = target: T6, JAK1(JH2domain-pseudokinase); experiment: biochemical; settings: read-out: Percent control
# FLT3(D835H) = FLT3(D835H) (Homo sapiens, UniProt P36888, D835H); experiment: biochemical; settings: read-out: Percent control
# EGFR(S752-I759del) [9] = target: T4, EGFR(S752-I759del); experiment: biochemical; settings: read-out: Percent control
# EGFR(E746-A750del) [10] = target: T1, EGFR(E746-A750del); experiment: biochemical; settings: read-out: Percent control
# EGFR(L747-E749del,A750P) [11] = target: T3, EGFR(L747-E749del,A750P); experiment: biochemical; settings: read-out: Percent control
# EGFR(L747-S752del,P753S) [12] = target: T5, EGFR(L747-S752del,P753S); experiment: biochemical; settings: read-out: Percent control
SMILES,Percent control [2],Percent control [6],remaining activity at 10 µM [7],remaining activity at 10 µM [8],further results
"Cc1ccc(NC(=O)c2ccc(CN3CCN(C)CC3)cc2)cc1Nc1nccc(-c2cccnc2)[n+]1[Pt-2]1([Cl])[NH2+]C2CCCCC2[NH2+]1 (stereo not drawn) [1b, oxaliplatin-imatinib]",80%,100%,–,–,"Percent control (EGFR(E746-A750del) [1]): 75%; Percent control (EGFR(L747-E749del,A750P) [3]): 67%; Percent control (EGFR(S752-I759del) [4]): 46%; Percent control (EGFR(L747-S752del,P753S) [5]): 81%"
"COc1cc2c(Nc3ccc(Br)cc3F)[n+]([Pt-2]3([Cl])[NH2+]C4CCCCC4[NH2+]3)cnc2cc1OCC1CCN(C)CC1 (stereo not drawn) [3b, oxaliplatin-vandetanib]",83%,85%,–,–,–
"C#Cc1cccc(Nc2c3cc(OCCOC)c(OCCOC)cc3nc[n+]2[Pt@SP2-2]([NH3+])([NH3+])[Cl])c1 [2a, cisplatin-erlotinib]",93%,100%,–,–,–
"COc1cc2c(Nc3ccc(Br)cc3F)ncnc2cc1OCC1CCN(C)CC1 [Vandetanib, reference compound]",–,–,100%,100%,–
C#Cc1cccc(Nc2ncnc3cc(OCCOC)c(OCCOC)cc23)c1 [Erlotinib],–,–,100%,100%,remaining activity at 10 µM (FLT3(D835H)): 3.4%
"Cc1ccc(NC(=O)c2ccc(CN3CCN(C)CC3)cc2)cc1Nc1nccc(-c2cccnc2)n1 [Imatinib, reference compound]",–,–,100%,100%,"remaining activity at 10 µM (EGFR(S752-I759del) [9]): 100%; remaining activity at 10 µM (EGFR(E746-A750del) [10]): 100%; remaining activity at 10 µM (EGFR(L747-E749del,A750P) [11]): 43.2%; remaining activity at 10 µM (EGFR(L747-S752del,P753S) [12]): 100%"
